# Reference: patent publication US9206173B2, “Heterocyclic compounds for the treatment of stress-related conditions” (OTSUKA PHARMACEUTICAL CO., LTD., priority 2009, dated 2015)
# Amino acid sequences for entries named in this document (tags omitted). A change or cut given only in a name is not applied to a line headed by its entry.
# UniProt P49683: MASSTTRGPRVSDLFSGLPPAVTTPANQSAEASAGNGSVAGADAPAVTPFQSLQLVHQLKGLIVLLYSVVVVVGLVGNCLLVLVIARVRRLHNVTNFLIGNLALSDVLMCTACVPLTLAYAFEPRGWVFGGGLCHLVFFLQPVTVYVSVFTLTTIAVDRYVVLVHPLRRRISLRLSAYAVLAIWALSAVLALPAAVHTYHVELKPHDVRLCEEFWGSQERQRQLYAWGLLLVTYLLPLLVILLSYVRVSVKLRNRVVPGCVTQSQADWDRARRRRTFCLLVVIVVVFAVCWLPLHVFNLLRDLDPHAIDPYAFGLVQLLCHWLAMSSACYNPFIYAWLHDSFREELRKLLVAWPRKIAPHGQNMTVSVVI
# How the values were obtained:
# human GPR10 [1] = target: T1, human GPR10 (Homo sapiens (Human), UniProt P49683); assay: Inhibitory activity on binding of [3H]-PrRP to GPR10 (HEK 293 cell membrane fraction); conditions: [3H]-PrRP 1 nM, human GPR10-expressing HEK 293 cell membrane fraction; Ki from IC50 by Cheng-Prussoff formula
# Protocol: Inhibitory Activity on Binding of [^3H]-PrRP to GPR10
# Human GPR10 receptor expressing human embryonic kidney cells, HEK 293 cells, were cultured in Dulbecco's Modified Eagle's medium supplemented with 10% fetal bovine serum and 1% penicilline-streptmycin at 37° C., in 5% carbon dioxide gas conditions. The medium was removed and the cells were recovered in a phosphate buffer to prepare a cell suspension. The cell suspension was homogenated on ice by an ultrasonic cell homogenizer (Microson™ type XL200) and centrifuged at 40,000 g for 10 minutes at 4° C. After the supernatant was discarded, Buffer A (20 mM HEPES, 10 mM EDTA, 1 μl/ml protease inhibiting cocktail, pH 7.4) was added to the pellet. The pellet was suspended by the ultrasonic cell homogenizer, then the suspension was centrifuged at 40,000 g, for 10 minutes at 4° C. After this operation was repeated once again, the supernatant was discarded, Buffer B (20 mM HEPES, 0.1 mM EDTA, pH 7.4) was added to the pellet, and the pellet was suspended by the ultrasonic homogenizer. This was stored at a freezer of −80° C. as a cell membrane fraction until use in a binding test.
# To each well of a 96-well plate, 150 μl of assay buffer (20 mM HEPES, 10 mM EDTA, 1 μl/ml protease inhibiting agent cocktail, pH 7.4), 20 μl of cell membrane fraction, 10 μl of test compound and [^3H]-PrRP (final concentration 1 nM) were added and incubated at room temperature for 90 minutes. After completion of the reaction, using a cell harvester, the cell-membrane fraction sample product was filtered under aspiration by a glass fiber filter plate (Unifilter; GF/B) previously treated with 0.5% polyethylene imine. The filter was washed with a 50 mM Tris hydrochloric acid buffer (pH 7.4) three times. After the filter was dried in a dryer (50° C.) for about 3 hours, 40 μl of liquid scintillation cocktail (MicroScint-O) was added to each well and radio activity was measured by a scintillation counter (Packard Topcount). The radio activity in the presence of an excessive amount of non-labeled PrRP (final concentration: 100 nM) was regarded as non-specific binding.
# The binding inhibition rate was calculated based on calculating formula: 100−(radio activity when a compound is added−radio activity of non-specific binding)÷(radio activity when a solvent is added−radio activity of non-specific binding)×100.
# An IC50 value was calculated based on the concentration dependent reaction using a non-linear analysis program and a Ki value was calculated using Cheng-Prussoff formula.
# human GPR10 [2] = target: T1, human GPR10; assay: Antagonistic activity on PrRP-induced intracellular calcium mobilization in human GPR10-expressing HEK293 cells; assay type: cell-based; conditions: PrRP 1 nM-induced intracellular calcium mobilization, Fluo-8
# Protocol: Pharmacological Test 2 Antagonistic Activity on GPR10 Using Human GPR10-Expressing HEK293 Cells.
# Antagonistic activity of test compounds on PrRP-induced intracellular calcium mobilization was evaluated using GPR10-expressing HEK293 cells.
# HEK293 cells expressing human GPR10 were maintained in Dulbecco's Modified Eagles' medium supplemented with 10% fetal bovine serum, 1% penicillin-streptomycin and 20 mM HEPES at 37° C. in a 5% CO2 incubator. GPR10-expressing HEK293 cells were placed in poly-D-lysine coated 96-well culture plates and cultured for 18-24 hr before the test at a density of 3×10^4 cells/well. […] The cells were incubated with test compounds for 15 min at room temperature, and then PrRP (the final concentration, 1 nM) was added into the medium. The changes in intracellular calcium-dependent fluorescence were monitored using a fluorescence imaging plate reader (FDSS3000, Hamamatsu Photonics K.K.). Fluo-8 fluorescence was measured with excitation at 490 nm and emission at 520 nm. The calcium-dependent fluorescence intensity was calculated by subtracting basal intensity (average intensity for 30 sec before agonist stimulation) from peak intensity for 60 sec after PrRP-stimulation, and then IC50 values were determined by nonlinear curve-fitting program, GraphPad Prism 5.
Compound,Ki (human GPR10 [1]),IC50 (human GPR10 [2])
"COn1c(N[C@@H](C)c2ccc(C(F)(F)F)cc2)nc2c(c1=O)CN(C(=O)c1ccc(C#N)cc1)CC2 [Example 2386, 4-{3-methoxy-4-oxo-2-[(S)-1-(4-trifluoromethylphenyl)ethylamino]-3,5,7,8-tetrahydro-4H-pyrido[4,3-d]pyrimidine-6-carbonyl}benzonitrile]",2 nM,140 nM
"COn1c(N[C@@H](C)c2ccc(C(F)(F)F)cc2)nc2c(c1=O)CN(C(=O)c1ccc(Cl)c(C)c1)CC2 [Example 2396, 6-(4-chloro-3-methylbenzoyl)-3-methoxy-2-[(S)-1-(4-trifluoromethylphenyl)ethylamino]-5,6,7,8-tetrahydro-3H-pyrido[4,3-d]pyrimidin-4-one]",20 nM,2220 nM
"COn1c(N[C@@H](C)c2ccc(C(F)(F)F)cc2)nc2c(c1=O)CN(C(=O)c1cc3cc(Cl)ccc3o1)CC2 [Example 2403, 6-(5-chlorobenzofuran-2-carbonyl)-3-methoxy-2-[(S)-1-(4-trifluoromethylphenyl)ethylamino]-5,6,7,8-tetrahydro-3H-pyrido[4,3-d]pyrimidin-4-one]",12 nM,824 nM
"COc1cc(Cl)ccc1C(=O)N1CCc2nc(N[C@@H](C)c3ccc(C(F)(F)F)cc3)n(OC)c(=O)c2C1 [Example 2414, 6-(4-chloro-2-methoxybenzoyl)-3-methoxy-2-[(S)-1-(4-trifluoromethylphenyl)ethylamino]-5,6,7,8-tetrahydro-3H-pyrido[4,3-d]pyrimidin-4-one]",18 nM,
"COn1c(N[C@@H](C)c2ccc(C(F)(F)F)cc2)nc2c(c1=O)CN(C(=O)c1cnc3ccccc3c1)CC2 [Example 2418, 3-methoxy-6-(quinoline-3-carbonyl)-2-[(S)-1-(4-trifluoromethylphenyl)ethylamino]-5,6,7,8-tetrahydro-3H-pyrido[4,3-d]pyrimidin-4-one]",8 nM,286 nM
"CCOc1ccc(C(=O)N2CCc3nc(N[C@@H](C)c4ccc(C(F)(F)F)cc4)n(OC)c(=O)c3C2)cc1 [Example 2451, 6-(4-ethoxybenzoyl)-3-methoxy-2-[(S)-1-(4-trifluoromethylphenyl)ethylamino]-5,6,7,8-tetrahydro-3H-pyrido[4,3-d]pyrimidin-4-one]",9 nM,1280 nM
"COn1c(N[C@@H](C)c2ccc(C(F)(F)F)cc2)nc2c(c1=O)CN(C(=O)c1ccc3c(c1)CCC(=O)N3C)CC2 [Example 2461, 3-methoxy-6-(1-methyl-2-oxo-1,2,3,4-tetrahydro-quinoline-6-carbonyl)-2-[(S)-1-(4-trifluoromethylphenyl)ethylamino]-5,6,7,8-tetrahydro-3H-pyrido[4,3-d]pyrimidin-4-one]",16 nM,
